Measurements taken from patent publication US20250186419A1, “DOSING REGIMENS FOR TREATING PAIN” (VERTEX PHARMACEUTICALS INCORPORATED, priority 2023, published 2025).

What was measured:
[1] = test system: acute pain after an abdominoplasty; assay: Randomized, double-blind, placebo-controlled, 3-arm study of Compound 1 in acute pain after an abdominoplasty (Example 6); conditions: Compound 1 100 mg first dose
[2] = test system: pain following bunionectomy; assay: Randomized, double-blind, placebo-controlled, 5-arm study of Compound 1 in subjects with pain following bunionectomy (Example 4); conditions: Compound 1 high-dose group (100 mg first dose, then 50 mg q12h), HB/APAP 5 mg/325 mg q6h
[3] = test system: acute pain after a bunionectomy; assay: Randomized, double-blind, placebo-controlled, 3-arm study of Compound 1 in acute pain after a bunionectomy (Example 5); conditions: Compound 1 100 mg first dose
[4] = then 50 mg q12 h (N = 447), HB/APAP 5 mg/325 mg q6 h (N = 448)
[5] = then 50 mg q12 h (N = 426), HB/APAP 5 mg/325 mg q6 h (N = 431)

COc1c([C@H]2[C@H](C(=O)Nc3ccnc(C(N)=O)c3)O[C@@](C)(C(F)(F)F)[C@H]2C)ccc(F)c1F [Compound 1, (2R,3S,4S,5R)-4-[[3-(3,4-difluoro-2-methoxy-phenyl)-4,5-dimethyl-5-(trifluoromethyl)tetrahydrofuran-2-carbonyl]amino]pyridine-2-carboxamide]
Proportion of subjects achieving ≥2-point reduction in NPRS from baseline [1, 4]: 90.6% | Time to ≥2-point reduction in NPRS from baseline (min), Median, 95% CI [1, 4]: 119 (90, 180) min | % reduction from baseline in mean NPRS at 48 hours ([1]; then 50 mg q12 h (n = 447), HB/APAP 5 mg/325 mg q6 h (n = 448)): 47% | SPID48, LS mean (SE) ([1]; NPRS 0 to 48 hours, oral, then 50 mg q12 h (n = 447), HB/APAP 5 mg/325 mg q6 h (n = 448)): 118.4 (4.3) | Incidence of headache (adverse event) [2]: 8% | Incidence of nausea (adverse event) [2]: 8% | Proportion of subjects achieving ≥2-point reduction in NPRS from baseline [3, 5]: 90.1% | Time to ≥2-point reduction in NPRS from baseline (min), Median [3, 5]: 240 min | % reduction from baseline in mean NPRS at 48 hours ([3]; then 50 mg q12 h (n = 426), HB/APAP 5 mg/325 mg q6 h (n = 431)): 51% | SPID48, LS mean (SE) ([3]; NPRS 0 to 48 hours, oral, then 50 mg q12 h (n = 426), HB/APAP 5 mg/325 mg q6 h (n = 431)): 99.9 (4.5)
